Legend:
[1] = biological target: heteromeric α2β GlyR (α2em:βem) (Homo sapiens, UniProt P23416+P48167, P23416:DEL344-408/P23416:INS343GSSG/P48167:DEL356-399); experiment: whole-cell patch clamp; type: cell-based
homomeric α2 GlyR (α2em) = biological target: T1, homomeric α2 GlyR (α2em) (Homo sapiens, UniProt P23416, DEL344-408/INS343GSSG); experiment: whole-cell patch clamp; type: cell-based
T1 sequence (P23416 with tags, fused parts or gaps INS343GSSG/DEL344-408): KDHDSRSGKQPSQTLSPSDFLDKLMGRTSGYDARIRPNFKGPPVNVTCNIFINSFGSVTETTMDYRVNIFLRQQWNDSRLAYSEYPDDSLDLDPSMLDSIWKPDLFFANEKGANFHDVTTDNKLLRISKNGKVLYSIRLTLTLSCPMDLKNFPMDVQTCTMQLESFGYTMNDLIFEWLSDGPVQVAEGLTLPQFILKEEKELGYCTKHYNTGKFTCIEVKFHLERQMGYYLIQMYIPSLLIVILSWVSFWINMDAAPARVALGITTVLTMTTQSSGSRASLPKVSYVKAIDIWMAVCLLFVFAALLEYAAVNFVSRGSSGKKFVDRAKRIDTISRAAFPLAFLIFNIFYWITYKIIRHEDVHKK

The chains behind the UniProt entries cited, without tags or fusion partners. Residues count along the entry.
UniProt P48167, 23-355, stated change not applied: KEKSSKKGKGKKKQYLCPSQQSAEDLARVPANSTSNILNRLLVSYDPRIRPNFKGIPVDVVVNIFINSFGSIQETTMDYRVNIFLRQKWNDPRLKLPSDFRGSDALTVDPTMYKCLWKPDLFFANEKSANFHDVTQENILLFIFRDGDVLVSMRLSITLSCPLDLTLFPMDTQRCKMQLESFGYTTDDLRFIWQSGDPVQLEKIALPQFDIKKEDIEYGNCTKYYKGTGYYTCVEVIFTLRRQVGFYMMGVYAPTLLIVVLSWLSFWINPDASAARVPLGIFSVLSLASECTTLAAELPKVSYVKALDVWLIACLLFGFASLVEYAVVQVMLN
UniProt P48167, 400-497, stated change not applied: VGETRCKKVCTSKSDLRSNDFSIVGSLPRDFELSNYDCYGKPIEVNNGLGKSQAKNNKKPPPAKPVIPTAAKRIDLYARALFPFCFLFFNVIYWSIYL

## NCC(=O)O [glycine]
[1]
  EC50: ~60 µM
Homomeric α2 GlyR (α2em)
  EC50: ~100 µM

— paper doi:10.1101/2021.05.17.444520v1 (biorxiv, 2021)
